Binding of CDR-mutated scFvs to a peptide of the spike HR2 region

Data: MIT Lincoln Laboratory AlphaSeq set, Engelhart et al. 2022, doi:10.1038/s41597-022-01779-4, as distributed in FLAb.

Target: peptide PDVDLGDISGINAS, taken from heptad repeat 2 (HR2) of SARS-CoV-2 spike.

Ab-95 is the parent antibody, in scFv form: VH, then three GGGGS repeats, then VL. The heavy chain is unchanged in all variants.
VH: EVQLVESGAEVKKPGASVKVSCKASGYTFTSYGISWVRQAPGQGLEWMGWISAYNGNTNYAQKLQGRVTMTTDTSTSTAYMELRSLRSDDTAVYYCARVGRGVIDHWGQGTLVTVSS
VL: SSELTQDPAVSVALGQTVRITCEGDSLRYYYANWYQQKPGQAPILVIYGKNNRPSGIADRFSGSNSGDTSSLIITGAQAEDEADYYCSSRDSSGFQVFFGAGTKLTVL

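The parent was found by panning a naive human phage display library on the peptide. Variants in AAYL52 differ from the parent at up to three CDR positions; double and triple changes were sampled at random. In AlphaSeq, yeast of one mating type display the scFv and yeast of the other type display the target. Binding brings cells together so that they mate, and sequencing counts the barcode pairs among the diploids. The ratio of observed to expected reads was calibrated, replicate by replicate, on BCL2-family standards whose Kd was known from biolayer interferometry. Mating was done three times.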

Each variant is given by its three light chain CDRs, as the data file delimits them; those of the parent are EGDSLRYYYAN, GKNNRPS, SSRDSSGFQVF.
Affinities are written as log10 Kd with Kd in nM; a lower number is a better binder.
Averages over replicates are reported, and they cover detected replicates only.
An entry "n.d." has no value in the source: the pair was not observed among the diploids in that replicate. This suggests poor binding but is not conclusive.
In this assay the parent's reference entry averaged 2.31; its copy inside this library read 2.25.

| CDR-L1 | CDR-L2 | CDR-L3 | log10 Kd, replicates | log10 Kd (nM), mean | signal with controls |
|---|---|---|---|---|---|
| EGDSLEYYYAN | GKENRPW | SSRDSSGFQVF | 3.70 4.05 2.89 | 3.55 | 1/9 (2.94) |
| EGDSLRRYYAN | GKNNRPS | SSRDVSDFQVF | 2.59 3.62 n.d. | 3.10 | 1/9 (3.09) |
| FGDSLRYYYAN | GKNNRPS | SSKDSSGFKVF | n.d. 2.36 2.21 | 2.28 | 3/9 (4.26) |
| EPDSLRYYYAN | EKNNRPS | SSRDSSGFCVF | 4.48 5.81 n.d. | 5.15 | 5/9 (4.22) |
| EGDSLSYYYAN | GKKNRPS | SSRDSAGFQVF | 3.50 4.74 n.d. | 4.12 | 1/9 (5.20) |
| EGDILRYYYAN | GKNNRPS | SSRDSSGIQIF | 5.98 n.d. 4.15 | 5.07 | 3/9 (4.76) |
| EGDSLRYYYAN | HKNNKPS | SSRDSSGFQVV | 3.52 3.58 n.d. | 3.55 | 2/9 (4.35) |
| EGESRRYYYAN | GKRNRPS | SSRDSSGFQVF | n.d. n.d. n.d. | n.d. | 3/9 (4.20) |
| ELDSLRYYYAN | GKNNRPS | SYRDVSGFQVF | n.d. 2.27 n.d. | 2.27 | 0/9 |
| EGDSLRYYYAN | GYNNGPC | SSRDSSGFQVF | 4.96 n.d. n.d. | 4.96 | 4/9 (3.96) |
| EGDSLRYYYAN | GKNNKPS | SSRDSSGFQAF | 2.36 2.18 1.89 | 2.14 | 7/9 (4.19) |
| EGDSLRYYYAN | MKNNRPS | SSRDWSGFQVH | 4.88 n.d. n.d. | 4.88 | 3/9 (3.78) |
| EGDSLRYQYAI | GKNNRPA | SSRDSSGFQVF | n.d. 4.51 n.d. | 4.51 | 2/9 (3.57) |
| EGDSERYYYAN | GCNNRPS | SSRDSSRFQVF | n.d. n.d. n.d. | n.d. | 1/9 (4.23) |
| EGDSLRTYYAN | GKNNRPS | SSRDSSGFQVF | 2.00 1.98 1.74 | 1.91 | 4/9 (4.24) |
| EGDSLRYYYNN | GKNNRPS | SHRDSSGFQVI | 4.40 n.d. 4.48 | 4.44 | 1/9 (4.80) |
| EGDHLRYYYAN | GKNNVPV | SSRDSSGFQVF | 3.32 3.32 3.17 | 3.27 | 3/9 (3.97) |
| EGDVLRYYYAN | GKNNRCS | SSRDSSGFQVF | n.d. n.d. n.d. | n.d. | 4/9 (3.78) |
| KLDSLRYYYAN | KKNNRPS | SSRDSSGFQVF | n.d. n.d. n.d. | n.d. | 2/9 (4.09) |
| EGESLVYYYAN | GKNNRCS | SSRDSSGFQVF | 4.42 n.d. n.d. | 4.42 | 4/9 (3.53) |
| EGDSLRYYYAN | GKNNRSS | SGRDSSGFQVF | 2.67 2.50 2.42 | 2.53 | 3/9 (4.20) |
| EGDLLRYYYAN | GKVNRPS | SSRDQSGFQVF | 3.97 n.d. n.d. | 3.97 | 2/9 (3.05) |
| EGDSLRYYYAN | GWNNRPS | SSRMSIGFQVF | n.d. n.d. n.d. | n.d. | 2/9 (4.12) |
| KGDSLRSYYAN | GKNNRPF | SSRDSSGFQVF | 1.31 1.33 0.80 | 1.15 | 3/9 (3.78) |
| EGDSLRYYYAN | HKNNRIS | SSRDSSGFQCF | 4.00 n.d. n.d. | 4.00 | 6/9 (4.44) |
| EGDSERYYYAN | GKNNRLS | SDRDSSGFQVF | n.d. n.d. 3.84 | 3.84 | 2/9 (3.60) |
| ESDSLRYYNAN | GKNNRPS | SSRDSSGFAVF | 2.32 2.12 1.75 | 2.07 | 5/9 (4.59) |
| TGDSLVYYYAN | GKNNRPS | SSRDSSGFQVF | 2.48 2.13 2.21 | 2.27 | 3/9 (4.05) |
| EGDSLRYYYKQ | GKNNRPS | SSRDSSKFQVF | n.d. 4.43 3.39 | 3.91 | 1/9 (5.22) |
| EGDSLRYYYAN | GKNNRPS | SSRPSFGEQVF | 3.78 3.01 3.86 | 3.55 | 3/9 (4.78) |
| EFDSLRYYYAY | GKNNRPS | SSRDSSGFQVG | 3.59 n.d. n.d. | 3.59 | 2/9 (4.23) |
| EGDSLRYYEAN | GKNNRPS | MSRDSSGFQVF | 0.60 0.57 -0.17 | 0.33 | 5/9 (4.20) |
| ERDSLRYYYAM | GKNNRPS | SSRDSSGFQVF | 3.81 5.83 3.91 | 4.51 | 4/9 (4.18) |
| IGDSLRYWYAN | GKNNRPS | SSRDKSGFQVF | 3.12 2.91 2.67 | 2.90 | 1/9 (5.16) |
| EGDSLRYYIAN | GKMNRPS | SSIDSSGFQVF | 2.84 n.d. n.d. | 2.84 | 1/9 (3.79) |
| EGDILRYYYAN | GKNNRPS | SSRDSQGFTVF | n.d. 3.38 3.39 | 3.39 | 2/9 (3.52) |
| EGPSLRPYYAN | GKNNRGS | SSRDSSGFQVF | 2.32 3.42 3.04 | 2.92 | 2/9 (3.16) |
| EGDSLRDYYAN | GKNNRPS | SSRDSSGTQVA | 3.32 2.17 3.17 | 2.89 | 2/9 (4.22) |
| EGDSLRYYMAN | GKANRPS | SSRDSSHFQVF | 2.68 4.04 n.d. | 3.36 | 2/9 (4.09) |
| EGDNNRYYYAN | GKNNRPS | SSRDSSGFLVF | 3.16 3.22 4.30 | 3.56 | 4/9 (3.77) |
| EGDSLRYYYAN | GKQNPPS | SSRDSSGFIVF | 4.91 n.d. 3.58 | 4.25 | 4/9 (3.96) |
| EHDSLRYYYAK | GKNFRPS | SSRDSSGFQVF | 3.42 3.71 n.d. | 3.56 | 5/9 (3.70) |
| EGDSLRYYYAN | GKNNRPS | SSKDSKGFIVF | 2.57 2.08 2.83 | 2.49 | 2/9 (4.05) |
| EGLSLRYYYAN | GKNNRPS | SSRDMNGFQVF | 2.77 2.47 1.96 | 2.40 | 2/9 (4.08) |

Again, the first 5 entries without any signal:

CDR-L1,CDR-L2,CDR-L3,"log10 Kd, replicates","log10 Kd (nM), mean",signal with controls
EGESRRYYYAN,GKRNRPS,SSRDSSGFQVF,n.d. n.d. n.d.,n.d.,3/9 (4.20)
EGDSERYYYAN,GCNNRPS,SSRDSSRFQVF,n.d. n.d. n.d.,n.d.,1/9 (4.23)
EGDVLRYYYAN,GKNNRCS,SSRDSSGFQVF,n.d. n.d. n.d.,n.d.,4/9 (3.78)
KLDSLRYYYAN,KKNNRPS,SSRDSSGFQVF,n.d. n.d. n.d.,n.d.,2/9 (4.09)
EGDSLRYYYAN,GWNNRPS,SSRMSIGFQVF,n.d. n.d. n.d.,n.d.,2/9 (4.12)

Three control strains display no target. For library AAYL52, 28% of the pairings with them gave a signal, with a median of 3.91 and one signal in twenty below 2.90, so weak values seen in few replicates may be background. The control count says in how many pairings with the empty strains this scFv gave a signal, with their mean in brackets.